38 compounds from the OPERA property sets (Mansouri et al. 2018) can be followed below.

For the data set the following is noted: experimental values compiled from the literature.

In the case of `O=[N+]([O-])c1ccc([N+](=O)[O-])cc1`, the logP – broadly, a log measure of how a compound divides between an organic and an aqueous phase – worked out at 1.46. `O=[N+]([O-])c1ccc(O)c([N+](=O)[O-])c1O` had a logP of 2.1. To `O=C(O)C(O)(c1ccccc1)c1ccccc1` belongs 2.3; to `Nc1cc([N+](=O)[O-])cc([N+](=O)[O-])c1O`, 0.93. In the case of `Cc1nc([N+](=O)[O-])c([N+](=O)[O-])n1C` it was 0.49; in that of `COP(=O)(OC)c1ccccc1`, 0.95.

On to `CNOc1c([N+](=O)[O-])cc([N+](=O)[O-])cc1[N+](=O)[O-]`, for which the logP is 0.7. To `O=[N+]([O-])c1cccc([N+](=O)[O-])c1` belongs 1.49; to `O=NN1CC(Cl)C(Cl)C1` (stereo not drawn), 0.83; to `CC(C)CNOc1c([N+](=O)[O-])cc([N+](=O)[O-])cc1[N+](=O)[O-]`, 1.89. In the case of `CCN(CC)Oc1c([N+](=O)[O-])cc([N+](=O)[O-])cc1[N+](=O)[O-]` it was 1.29; in that of `O=[N+]([O-])c1ccccc1[N+](=O)[O-]`, 1.69. In the case of `O=[N+]([O-])OCCO[N+](=O)[O-]` it was 1.16; in that of `O=[N+]([O-])c1ccc([N+](=O)[O-])c(O)c1`, 1.75. `OCCSCCO` had a log partition coefficient (logP) of -0.63. Turning to `Cc1ccc([N+](=O)[O-])cc1[N+](=O)[O-]`, the logP stood at 1.98. As to `CCOP(=S)(CC)Oc1cc(Cl)c(Cl)cc1Cl` (stereo not drawn), the logP was determined as 5.23.

Consider `CCCSC(=NO)C(=O)c1ccc(Br)cc1`, for which the logP was 3.38.

In turn, `C[As](=O)([O-])O.[Na+]` returned a logP of -3.1. Regarding `NNc1ccc([N+](=O)[O-])cc1[N+](=O)[O-]`, the log partition coefficient (logP) is 1.47. In the case of `CC(C)(C)NOc1c([N+](=O)[O-])cc([N+](=O)[O-])cc1[N+](=O)[O-]` it was 1.68; in that of `C/N=C(\NC)N[N+](=O)[O-]`, -0.7; in that of `CCCCNOc1c([N+](=O)[O-])cc([N+](=O)[O-])cc1[N+](=O)[O-]`, 2.05.

For the compound `CCOP(=O)(CC)Sc1ccccc1` (stereo not drawn), the logP is 2.11. In the case of `Cc1cc([N+](=O)[O-])cc([N+](=O)[O-])c1O` it was 2.13; in that of `O=[N+]([O-])c1cc(O)cc([N+](=O)[O-])c1`, 2.36; in that of `O=[N+]([O-])c1cccc([N+](=O)[O-])c1O`, 1.37. In the case of `CC(O)C(C)(C)C` (stereo not drawn) it was 1.48. As to `CCC(C)NOc1c([N+](=O)[O-])cc([N+](=O)[O-])cc1[N+](=O)[O-]` (stereo not drawn), the logP came out at 1.8. To `O=C([O-])CCCc1ccc(N(CCCl)CCCl)cc1.[Na+]` belongs 0.93. In the case of `CNC(=O)CF` it was -0.83; in that of `CN(C)C(=O)OCc1cccc(N)c1`, 1.06.

`ClCCN(CCCl)c1ccccc1` showed a logP of 2.9. Compound `O=[N+]([O-])c1cc([N+](=O)[O-])c(ONC2CCCCC2)c([N+](=O)[O-])c1` came in with a logP of 2.47.

`N=C(N)N[N+](=O)[O-]` registered a logP of -0.89. To `CC(=O)C=NO` belongs 0.34; to `Cc1c([N+](=O)[O-])cc([N+](=O)[O-])cc1[N+](=O)[O-]`, 1.6. In the case of `O=[N+]([O-])c1cc([N+](=O)[O-])c2n[nH]cc2c1` it was 1.6.
